From PubChem BioAssay AID1508602 (The Scripps Research Institute Molecular Screening Center, 2020)
The list shows a part of the results, in another mix than the full data. Some salts or complexes appear as unconnected parts, following the source record. Active and inactive are the calls of the source. Rule as the data show it: active = activation above about 4.9%; inactive = the rest.

By UniProt entry, the sequences of proteins in these tests, tags left out.
UniProt Q8TDV0, whole entry: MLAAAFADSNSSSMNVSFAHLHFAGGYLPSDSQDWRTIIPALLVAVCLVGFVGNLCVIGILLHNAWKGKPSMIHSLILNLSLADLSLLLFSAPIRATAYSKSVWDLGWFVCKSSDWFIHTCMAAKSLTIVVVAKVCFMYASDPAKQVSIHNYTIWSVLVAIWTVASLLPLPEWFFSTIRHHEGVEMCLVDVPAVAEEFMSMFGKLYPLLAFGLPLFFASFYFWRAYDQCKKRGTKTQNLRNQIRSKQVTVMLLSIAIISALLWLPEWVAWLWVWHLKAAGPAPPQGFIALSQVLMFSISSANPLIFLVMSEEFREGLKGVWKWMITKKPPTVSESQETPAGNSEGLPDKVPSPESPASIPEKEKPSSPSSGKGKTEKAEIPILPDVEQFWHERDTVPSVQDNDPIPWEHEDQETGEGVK

Target: G-protein coupled receptor 151 (Homo sapiens) (UniProt Q8TDV0)
Test: activators of human GPR151, primary screen, cell-based, PathHunter beta-arrestin, luminescence (AID 1508602);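 also: 0% = median of compound wells and 100% = cells with positive control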
Details: PathHunter beta-arrestin GPR151 cells, at 11.2 µM, stronger effect = higher value

Compound | activation
Cc1ccc(C)c(NP(C)(=O)Oc2ccccc2)c1 (stereo not given) | inactive: 0.0458%
O=[N+]([O-])c1cc2[nH]c3cc([N+](=O)[O-])c([N+](=O)[O-])cc3c2cc1[N+](=O)[O-] | inactive: -0.34%
C=CCC1(CC=C)CCCCCCCCCCCN1.O=[N+]([O-])c1cc([N+](=O)[O-])c(O)c([N+](=O)[O-])c1 | inactive: -2.15%
CP(=O)(Nc1cccc(Br)c1)Oc1ccccc1 (stereo not given) | inactive: -0.0099%
O=[N+]([O-])c1cnc(Nc2c([N+](=O)[O-])cc([N+](=O)[O-])cc2[N+](=O)[O-])c([N+](=O)[O-])c1 | inactive: 2.93%
CC(=O)NC1(NC(C)=O)CC(C)N(C)CC1C.O=[N+]([O-])c1cc([N+](=O)[O-])c(O)c([N+](=O)[O-])c1 (stereo not given) | inactive: -0.358%
COc1ccc(OP(C)(=O)Nc2cccc(Cl)c2C)cc1 (stereo not given) | inactive: -0.889%
COc1ccccc1OP(C)(=O)Nc1cccc(Br)c1 (stereo not given) | inactive: 1.82%
COc1ccccc1OP(C)(=O)Nc1ccc(Cl)cc1 (stereo not given) | inactive: 1.68%
CC1=[N+](C)C(C)(C)Cc2ccccc21.O=[N+]([O-])c1cc([N+](=O)[O-])c(O)c([N+](=O)[O-])c1 | inactive: 0.337%
CCOC(=O)c1ccc(NP(C)(=O)Oc2cc(C)cc(C)c2)cc1 (stereo not given) | inactive: 2.19%
O=c1[nH]c2cc([N+](=O)[O-])c([N+](=O)[O-])c([N+](=O)[O-])c2[nH]1 | inactive: -0.107%
Cc1ccc(Cl)c(OP(C)(=O)Nc2ccccn2)c1 (stereo not given) | inactive: 1.73%
O=[N+]([O-])Nc1nc(CCc2n[nH]c(N[N+](=O)[O-])n2)n[nH]1 | inactive: -0.473%
O=[N+]([O-])C12CC3(O)CC([N+](=O)[O-])(C1)CC([N+](=O)[O-])(C3)C2 | inactive: -0.114%
Nc1c([N+](=O)[O-])cc([N+](=O)[O-])c(Nc2ccc(C(=O)O)cc2)c1[N+](=O)[O-] | inactive: -1.69%
COc1ccccc1OP(C)(=O)Nc1c(C)cccc1C (stereo not given) | inactive: 1.89%
CCN(CC)C(C)COC(=O)C(O)(c1ccccc1)c1ccccc1 (stereo not given) | inactive: -0.752%
Cc1cc(N(C)C)cc[n+]1C(=O)N(C)C.c1ccc([B-](c2ccccc2)(c2ccccc2)c2ccccc2)cc1 | inactive: -0.674%
CCCOc1ccc(NP(C)(=O)Oc2ccccc2OC)cc1 (stereo not given) | inactive: 2.09%
CP(=O)(Nc1cccc(Br)c1)Oc1ccc(Cl)cc1 (stereo not given) | inactive: 0.484%
CP(=O)(Nc1ccc(Br)cc1)Oc1ccc(Cl)cc1 (stereo not given) | inactive: -0.878%
CCOC(=O)C(CC)C1=NC(C)(C)Cc2ccccc21.O=[N+]([O-])c1cc([N+](=O)[O-])c(O)c([N+](=O)[O-])c1 (stereo not given) | inactive: -0.0514%
COc1ccc(NP(C)(=O)Oc2ccc(Cl)cc2)cc1 (stereo not given) | inactive: 2.53%
Cc1cc(-c2nc3ccccc3[nH]2)c2ccccc2n1.O=[N+]([O-])c1cc([N+](=O)[O-])c(O)c([N+](=O)[O-])c1 | inactive: 0.114%
CN(C)/N=C/c1ccc(-c2c([N+](=O)[O-])cc([N+](=O)[O-])cc2[N+](=O)[O-])o1 | inactive: -1.69%
CP(=O)(O)OC(c1ccccc1)C(Cl)(Cl)C(F)(F)F (stereo not given) | inactive: 0.0516%
Nc1nonc1-c1no[n+]([O-])c1-c1nonc1N | inactive: -1.26%

Compound | activation
CCN(CC)C(=O)c1c([N+](=O)[O-])cc([N+](=O)[O-])cc1[N+](=O)[O-] | inactive: -1.78%
CCOC(=O)c1ccc(NP(C)(=O)Oc2ccc(OC)cc2)cc1 (stereo not given) | inactive: -0.628%
Cc1cccc(NP(C)(=O)Oc2ccccc2)c1 (stereo not given) | inactive: -0.437%
CP(=O)(O)OC(c1ccc(Cl)cc1)C(F)(F)F (stereo not given) | inactive: -0.553%
COc1ccccc1OP(C)(=O)Nc1cccc(Cl)c1C (stereo not given) | inactive: -0.562%
Cc1ccc(Cl)cc1OP(C)(=O)Nc1cccc2nsnc12 (stereo not given) | inactive: -0.708%
CCOP(C)(=S)SCC(=O)NC(C)C(=O)O (stereo not given) | inactive: 0.534%
CP(=O)(Nc1ccccn1)Oc1ccc(Cl)cc1 (stereo not given) | active: 6.84%
COc1cc2nc(C)sc2cc1NC(C)=O | inactive: -0.564%
CCOP(C)(=S)SCC(=O)NC(Cc1ccccc1)C(=O)O (stereo not given) | inactive: 1.01%
COc1ccc(NP(C)(=O)Oc2ccc(C(C)C)cc2)cc1 (stereo not given) | inactive: 0.453%
C=C(C)CC1NC2CC(C)(C)C1c1ccccc12.O=[N+]([O-])c1cc([N+](=O)[O-])c(O)c([N+](=O)[O-])c1 (stereo not given) | inactive: -0.814%
CP(=O)(NC(=O)Nc1ccccc1)Oc1ccccc1 (stereo not given) | inactive: -0.467%
CP(=O)(O)OC(c1cccc(Cl)c1)C(F)(F)F (stereo not given) | inactive: -0.636%
CCN(CC)P(=O)(c1c([N+](=O)[O-])cc([N+](=O)[O-])cc1[N+](=O)[O-])N(CC)CC | inactive: -0.251%
Cc1ccc(NP(C)(=O)Oc2ccccc2)cc1C (stereo not given) | inactive: 1.14%
CP(=O)(Nc1ccc(Cl)cc1)Oc1ccccc1 (stereo not given) | inactive: 1.63%
CP(=O)(Nc1ccccc1Br)Oc1ccccc1 (stereo not given) | inactive: 0.403%
CC(Nc1c([N+](=O)[O-])cc([N+](=O)[O-])cc1[N+](=O)[O-])c1ccc([N+](=O)[O-])cc1 (stereo not given) | inactive: 0.746%
COc1ccccc1OP(C)(=O)Nc1ccccc1 (stereo not given) | inactive: 0.467%
CN(C)CCOC(=O)C(O)(c1ccccc1)c1ccccc1 | inactive: -0.037%
CP(=O)(O)OC(c1ccccc1)C(F)(F)F (stereo not given) | inactive: 0.371%
COc1ccc(NP(C)(=O)OC(c2ccccc2)C(F)(F)F)cc1 (stereo not given) | inactive: 1.76%
O=[N+]([O-])c1cc([N+](=O)[O-])c(CCO)c([N+](=O)[O-])c1 | inactive: 1.17%
COc1ccccc1OP(C)(=O)Nc1ccc(C)cc1 (stereo not given) | inactive: -0.228%
Cc1ccc(NP(C)(=O)Oc2ccccc2)c(C)c1 (stereo not given) | inactive: -0.234%
CCOC(=O)c1ccc(NP(C)(=O)Oc2ccccc2)cc1 (stereo not given) | inactive: 0.579%
